Laboratory results from patent US11446342B2, “Composite probiotics and use thereof” (INFINITUS (CHINA) COMPANY LTD., priority 2019, dated 2022).

System: mice having high-fat diet induced metabolic syndrome
Test: Serum IFN-γ in high-fat diet-induced metabolic syndrome
Assay type: in vivo, C57BL/6J mice
Details: intragastric daily, high-fat feed; probiotics total 1.0×10^9 CFU/mL

CN(CCOc1ccc(CC2SC(=O)NC2=O)cc1)c1ccccn1 (stereo not shown) [RH, rosiglitazone]
extent of decrease of serum IFN-γ content compared with the HF group: 39.06 ng/L
